Measurements published in ChEMBL document CHEMBL3872252, “New bithiazolyl hydrazones: Novel synthesis, characterization and antitubercular evaluation” (Bioorg Med Chem Lett, 2017).

Columns and labels:
[1] = Selectivity index, ratio of GI50 for human MCF7 cells to MIC90 for Mycobacterium tuberculosis H37Ra ATCC 25177 dormant stage; type: toxicity, cell-based; settings: read-out: Selectivity Index
Summary of the method: (§1)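 Cytotoxicity was measured on human MCF-7, HCT116 and THP-1 cells by MTT assay, with paclitaxel as reference. GI50 is the concentration inhibiting 50% of cell growth. The selectivity index is GI50 for the given cell line divided by MIC90 for the given mycobacterial strain and stage.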

[2] = Selectivity index, ratio of GI50 for human HCT116 cells to MIC90 for Mycobacterium tuberculosis H37Ra ATCC 25177 dormant stage; type: toxicity, cell-based, HCT-116; settings: read-out: Selectivity Index; summary of the method: as §1

Compound: CO[C@H]1/C=C/O[C@@]2(C)Oc3c(C)c(O)c4c(O)c(c(/C=N/N5CCN(C)CC5)c(O)c4c3C2=O)NC(=O)/C(C)=C\C=C\[C@H](C)[C@H](O)[C@@H](C)[C@@H](O)[C@@H](C)[C@H](OC(C)=O)[C@@H]1C [RIFAMPIN]
- selectivity ratio [1]: 133
- selectivity ratio [2]: 133
